## Ab-14 heavy chain CDR variants: yeast mating affinities

From the AlphaSeq antibody data of Li et al. 2023 (doi:10.1038/s41467-023-39022-2), copy in the FLAb collection.

The target is the same throughout: PDVDLGDISGINAS, from the HR2 region of SARS-CoV-2 spike.

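Phage display of a naive human antibody library on the peptide gave the parent. This is the validation round: designs drawn from the data on random variants, tested in the same kind of assay. Group labels follow the data file (Ctrl: baseline library sampled from a position-specific scoring matrix, with some repeated check sequences; Rand: our label for a block that the file lists under HC and that is probably the random mutants of the ten best first-round binders; En: ensemble of fine-tuned language models; GP: Gaussian process model; GPLM: also part of the Gaussian process libraries; HC: hill climbing; Gen: genetic algorithm; Gibbs: Gibbs sampling; a sequence that several methods proposed may carry one label only). In AlphaSeq, yeast of one mating type display the scFv and yeast of the other type display the target. After mating in shaken culture at 30 °C for 16 h, diploids were selected and their barcode pairs sequenced. The ratio of observed to expected reads was calibrated, replicate by replicate, on BCL2-family standards whose Kd was known from biolayer interferometry. The assay was run in six technical replicates.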

Ab-14 is the parent antibody, in scFv form: VH, then the linker GGGGSGGGGSGGGGS, then VL. The light chain is unchanged in all variants.
VH: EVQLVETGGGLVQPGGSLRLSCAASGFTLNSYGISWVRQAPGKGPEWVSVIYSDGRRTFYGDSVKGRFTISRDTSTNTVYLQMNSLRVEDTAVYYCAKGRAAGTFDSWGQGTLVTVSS
VL: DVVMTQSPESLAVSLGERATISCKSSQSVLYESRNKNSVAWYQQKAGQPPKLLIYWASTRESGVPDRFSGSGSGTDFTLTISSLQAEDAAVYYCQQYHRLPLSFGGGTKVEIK

Positions count from residue 1 of the parent VH; T28N puts N in place of T.
Variants here have at most six changes.
Kd is apparent (estimated from mating counts) and averaged on the log scale over replicates with a signal. Smaller is tighter.
"no signal" means that the variant was in the library but no mating with the target was seen in any replicate; the authors take this as a sign of poor binding, and no number exists.
The parent sequence was in this pool as ten entries: three were never detected, three once, and four in most replicates, with averages from 2.2 nM to 240 nM.

The variant T28N S63D A101N [GP_Gen] showed 12 nM (6 of 6 replicates). With T28S R56Q G61A A101T [GPLM_Gen] the result was 640 pM (6 of 6 replicates). The variant G55Y R100T [Ctrl] gave no signal (0 of 6 replicates). With T28W S31D F59Y [GP_HC] the result was 50 nM (1 of 6 replicates). The variant G99C [Ctrl] gave no signal (0 of 6 replicates). The variant T28D S63R R100L A101T [GP_Gibbs] showed 2.2 nM (6 of 6 replicates). The variant T28D A101N S107K [GP_Gibbs] showed 4.7 nM (6 of 6 replicates). For N30E G61K R100Q A101G [GP_HC], the assay gave no signal (0 of 6 replicates).

For S31D G61A T104D [Ctrl], the assay gave 9.0 nM (6 of 6 replicates). The variant S31D G61H R100K [GP_HC] showed 5.6 nM (4 of 6 replicates). The variant T28E S63A A101T [GPLM_Gen] showed 3.2 nM (6 of 6 replicates). The variant G61S A101V A102G [GPLM_HC] showed 3.7 nM (6 of 6 replicates). For R100S A101G S107I [Ctrl], the assay gave no signal (0 of 6 replicates). The variant F27V T28S R100I S107G [Ctrl] gave 5.4 nM (4 of 6 replicates). With T28N S53A G61K S63Q S107K [Ctrl] the result was 20 nM (4 of 6 replicates). With G26S T28S G61A R100K [GPLM_Gen] the result was no signal (0 of 6 replicates).

For G26H T28D L29W T104W D106N [Rand], the assay gave no signal (0 of 6 replicates). The variant T28D S31E S53A G61I R100T A101V [En_HC] showed 1.8 nM (6 of 6 replicates). The variant G61A S63D A101V S107V [GP_Gibbs] gave 30 nM (2 of 6 replicates). With S35Q G61Q [Ctrl] the result was no signal (0 of 6 replicates). The variant T28S S31E S63Q R100K A101T [GP_Gen] showed 650 pM (6 of 6 replicates). The variant S31N S63D R100A T104W [Ctrl] gave no signal (0 of 6 replicates). For L29V R56K G61Q D106N [Ctrl], the assay gave 15 nM (2 of 6 replicates). For R100E A101L S107V [Ctrl], the assay gave 5.2 nM (6 of 6 replicates).

For S31Q G61S G103V [GP_HC], the assay gave no signal (0 of 6 replicates). With G26E T28N G61A A101T [GPLM_Gen] the result was 3.6 nM (5 of 6 replicates). With G103K D106P [Ctrl] the result was 19 nM (3 of 6 replicates). With S31E G61Q G103V S107L [GP_HC] the result was no signal (0 of 6 replicates). The variant T28S S31N G61H A101V [GP_Gibbs] showed 1.8 nM (6 of 6 replicates). With T28D S31E S53A G61A R100E A101N [En_HC] the result was 280 pM (6 of 6 replicates). The variant T28W S31E G61A [GPLM_Gen] gave 1.9 nM (6 of 6 replicates). For T28N R56M A101T [GP_Gen], the assay gave no signal (0 of 6 replicates).

The variant T28D R100N A101T S107D [GP_Gibbs] showed 1.7 nM (6 of 6 replicates). With S31Q R56I [Ctrl] the result was 4.1 nM (6 of 6 replicates). With L29I G61A A102E [Ctrl] the result was no signal (0 of 6 replicates). With T28D R100K A101T S107A [GP_Gen] the result was 990 pM (6 of 6 replicates). For S31Q G61S G99S [Rand], the assay gave no signal (0 of 6 replicates). The variant G61T R100Q A101V [GPLM_HC] gave 9.0 nM (4 of 6 replicates). The variant T28D S63Q R100M A101T [GP_Gibbs] gave 17 nM (6 of 6 replicates). The variant T28D S63Q R100K S107V [GP_Gibbs] gave 1.3 nM (6 of 6 replicates).

With S31E S53A R100Q D106K [GP_HC] the result was 2.8 nM (6 of 6 replicates). The variant T28D S63D R100N [GP_Gen] showed 2.7 nM (6 of 6 replicates). The variant G99S A101I [Ctrl] gave no signal (0 of 6 replicates).

Again, the first 4 entries without any signal:

changes,group,Kd (apparent),replicates with signal
G55Y R100T,Ctrl,no signal,0 of 6
G99C,Ctrl,no signal,0 of 6
N30E G61K R100Q A101G,GP_HC,no signal,0 of 6
R100S A101G S107I,Ctrl,no signal,0 of 6

In the paper, a design with two or fewer of six values counts as a poor binder.
Empty control strains, which show no peptide, gave a signal in 1% of pairings with all heavy chain designs; the median was 120 nM and 95% of these signals were weaker than 7.0 nM. No background was subtracted.
A sequence measured in both rounds can read differently, since the two assays cover different ranges.